Test results: patent US6660768B2, “Parasiticidal compositions and methods of use” (Schering-Plough Animal Health Corporation, priority 2001, dated 2003)

Columns and labels:
[1] = Example 3B: solubility of permethrin in PM (propylene glycol monomethyl ether), DM (diethylene glycol monomethyl ether) and PM or DPM (dipropylene glycol monomethyl ether)/d-limonene mixtures at low temperatures, seeded
Description: These solutions were poured into 100 mL tubes with screw top caps. These tubes were placed in the cold water bath and allowed to come to equilibrium at the temperature of the bath. […] The seeded preparations were then thoroughly shaken, replaced in the bath and allowed to remain in the bath for a 24 hour period. The preparations were then examined for crystallization, then again thoroughly agitated and replaced in the bath for an additional time period. Samples of the supernatant were removed after additional crystallization had occurred.
The solvent mixtures tested were: dipropylene glycol monomethyl ether/d-limonene and propylene glycol monomethyl ether/d-limonene.
These solvent mixtures were evaluated at ratios of 2:1, 1:1, 1:2, and then at 8:2 and 9:1 (the first number refers to one of the glycol ethers, the second number refers to d-limonene).

[2] = Example 3C: solubility of 30% permethrin in d-limonene/propylene glycol monomethyl ether mixtures at -15° C.; format: physicochemical; details: initial 30% permethrin
Description: A third study was initiated to determine if there would be increased solubility of lower concentrations of permethrin in the solvent mixtures.
The temperature was regulated to −15° C. The solutions were placed in the bath and allowed to crystallize and reach equilibrium. The supernatant solution was sampled and analyzed to determine the concentration of permethrin and isomer ratio.

[3] = DM, 10° C., Original % permethrin 50
[4] = DM, 10° C., Original % permethrin 55
[5] = DM, 10° C., Original % permethrin 60
[6] = DM, 20° C., Original % permethrin 50
[7] = DM, 20° C., Original % permethrin 55
[8] = DM, 20° C., Original % permethrin 60
[9] = DM, 20° C., Original % permethrin 65
[10] = DM, 20° C., Original % permethrin 75
[11] = DM, 25° C., Original % permethrin 50
[12] = DM, 25° C., Original % permethrin 55
[13] = DM, 25° C., Original % permethrin 60
[14] = DM, 25° C., Original % permethrin 65
[15] = DM, 25° C., Original % permethrin 75
[16] = PM, 5° C., Original % permethrin 50
[17] = PM, 5° C., Original % permethrin 55
[18] = PM, 5° C., Original % permethrin 60
[19] = PM, 5° C., Original % permethrin 65
[20] = PM, 5° C., Original % permethrin 75
[21] = PM, 10° C., Original % permethrin 60
[22] = PM, 10° C., Original % permethrin 65
[23] = PM, 10° C., Original % permethrin 75
[24] = PM, 20° C., Original % permethrin 50
[25] = PM, 20° C., Original % permethrin 55
[26] = PM, 20° C., Original % permethrin 60
[27] = PM, 20° C., Original % permethrin 65
[28] = PM, 20° C., Original % permethrin 75
[29] = PM, 25° C., Original % permethrin 50
[30] = PM, 25° C., Original % permethrin 55
[31] = PM, 25° C., Original % permethrin 60
[32] = PM, 25° C., Original % permethrin 65
[33] = PM, 25° C., Original % permethrin 75

SMILES: CC1(C)C(C=C(Cl)Cl)C1C(=O)OCc1cccc(Oc2ccccc2)c1 (stereo not shown) [permethrin]
- Crystals ([1]; DM, 5° C., Original % permethrin 75): >90%
- Crystals [1, 3]: 1/4
- trans/cis isomer ratio [1, 3]: 1.82
- Crystals [1, 4]: 1/2
- trans/cis isomer ratio [1, 4]: 2.08
- Crystals [1, 5]: 2/3
- trans/cis isomer ratio [1, 5]: 1.97
- Crystals ([1]; DM, 10° C., Original % permethrin 65): 2/3
- Crystals ([1]; DM, 10° C., Original % permethrin 75): 3/4
- Crystals [1, 6]: None
- trans/cis isomer ratio [1, 6]: 1.24
- Crystals [1, 7]: None
- trans/cis isomer ratio [1, 7]: 1.23
- Crystals [1, 8]: None
- trans/cis isomer ratio [1, 8]: 1.31
- Crystals [1, 9]: None
- trans/cis isomer ratio [1, 9]: 1.31
- Crystals [1, 10]: Crystals
- trans/cis isomer ratio [1, 10]: 1.39
- Crystals [1, 11]: None
- trans/cis isomer ratio [1, 11]: 1.24
- Crystals [1, 12]: None
- trans/cis isomer ratio [1, 12]: 1.23
- Crystals [1, 13]: None
- trans/cis isomer ratio [1, 13]: 1.22
- Crystals [1, 14]: None
- trans/cis isomer ratio [1, 14]: 1.25
- Crystals [1, 15]: None
- trans/cis isomer ratio [1, 15]: 1.30
- Crystals [1, 16]: None
- trans/cis isomer ratio [1, 16]: 1.77
- Crystals [1, 17]: Few
- trans/cis isomer ratio [1, 17]: 1.60
- Crystals [1, 18]: 1/3
- trans/cis isomer ratio [1, 18]: 1.94
- Crystals [1, 19]: 1/2
- trans/cis isomer ratio [1, 19]: 1.98
- Crystals [1, 20]: >90%
- trans/cis isomer ratio [1, 20]: 2.21
- Crystals ([1]; PM, 10° C., Original % permethrin 50): None
- Crystals ([1]; PM, 10° C., Original % permethrin 55): Few
- Crystals [1, 21]: 1/3
- trans/cis isomer ratio [1, 21]: 1.51
- Crystals [1, 22]: 1/2
- trans/cis isomer ratio [1, 22]: 1.99
- Crystals [1, 23]: 2/3
- trans/cis isomer ratio [1, 23]: 2.05
- Crystals [1, 24]: None
- trans/cis isomer ratio [1, 24]: 1.28
- Crystals [1, 25]: None
- trans/cis isomer ratio [1, 25]: 1.29
- Crystals [1, 26]: None
- trans/cis isomer ratio [1, 26]: 1.25
- Crystals [1, 27]: None
- trans/cis isomer ratio [1, 27]: 1.23
- Crystals [1, 28]: None
- trans/cis isomer ratio [1, 28]: 1.23
- Crystals [1, 29]: None
- trans/cis isomer ratio [1, 29]: 1.28
- Crystals [1, 30]: None
- trans/cis isomer ratio [1, 30]: 1.28
- Crystals [1, 31]: None
- trans/cis isomer ratio [1, 31]: 1.24
- Crystals [1, 32]: None
- trans/cis isomer ratio [1, 32]: 1.22
- Crystals [1, 33]: None
- trans/cis isomer ratio [1, 33]: 1.21
- Isomer Ratio Trans/Cis ([2]; 0% d-limonene in formula): 2.83
- Isomer Ratio Trans/Cis ([2]; 20% d-limonene in formula): 2.33
- Isomer Ratio Trans/Cis ([2]; 33% d-limonene in formula): 2.05
- Isomer Ratio Trans/Cis ([2]; 50% d-limonene in formula): 1.75
- Isomer Ratio Trans/Cis ([2]; 67% d-limonene in formula): 1.66
- Isomer Ratio Trans/Cis ([2]; 100% d-limonene in formula): 2.05
